Experiments:
[1] = biological target: 5-hydroxytryptamine receptor 2B (Homo sapiens, UniProt P41595)
[2] = biological target: 5-hydroxytryptamine receptor 2C (Homo sapiens, UniProt P28335)

By UniProt entry, the sequences of proteins in these tests, tags left out. Where a name states a change or a piece, a line headed by the entry shows the natural chain unless it says otherwise.
UniProt P41595, whole entry: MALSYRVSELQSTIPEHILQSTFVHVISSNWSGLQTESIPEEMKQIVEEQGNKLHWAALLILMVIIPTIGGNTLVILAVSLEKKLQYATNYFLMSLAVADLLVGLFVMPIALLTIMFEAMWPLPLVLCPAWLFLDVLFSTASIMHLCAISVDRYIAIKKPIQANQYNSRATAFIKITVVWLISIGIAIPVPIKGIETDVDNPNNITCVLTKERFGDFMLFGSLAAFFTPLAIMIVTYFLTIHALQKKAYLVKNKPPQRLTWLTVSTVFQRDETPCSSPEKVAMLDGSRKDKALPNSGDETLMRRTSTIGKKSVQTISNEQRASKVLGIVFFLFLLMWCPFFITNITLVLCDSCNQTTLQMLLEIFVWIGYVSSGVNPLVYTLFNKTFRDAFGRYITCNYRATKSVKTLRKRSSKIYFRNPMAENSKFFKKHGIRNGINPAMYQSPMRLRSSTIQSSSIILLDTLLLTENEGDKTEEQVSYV
UniProt P28335: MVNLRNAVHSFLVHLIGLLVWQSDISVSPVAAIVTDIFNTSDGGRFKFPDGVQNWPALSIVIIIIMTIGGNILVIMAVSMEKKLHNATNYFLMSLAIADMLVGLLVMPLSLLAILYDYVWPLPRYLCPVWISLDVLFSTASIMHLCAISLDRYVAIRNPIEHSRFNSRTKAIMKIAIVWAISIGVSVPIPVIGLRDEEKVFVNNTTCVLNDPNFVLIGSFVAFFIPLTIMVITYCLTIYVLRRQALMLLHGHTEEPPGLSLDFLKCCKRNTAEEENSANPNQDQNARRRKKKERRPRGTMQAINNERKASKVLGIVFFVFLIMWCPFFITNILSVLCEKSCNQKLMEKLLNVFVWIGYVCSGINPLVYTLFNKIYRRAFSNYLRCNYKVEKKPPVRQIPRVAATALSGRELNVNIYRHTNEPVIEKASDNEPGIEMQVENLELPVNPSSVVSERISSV

SMILES	Ki [1]	Ki [2]
CCN[C@@H](C)Cc1cccc(C(F)(F)F)c1 [NSC_65801]	3920 nM	2080 nM
CCN[C@H](C)Cc1cccc(C(F)(F)F)c1 [NSC_65801]	680 nM	
